Reference: article PMC3392217, “BmK-YA, an Enkephalin-Like Peptide in Scorpion Venom” (PLoS ONE, 2012)

The chains behind the UniProt entries cited, without tags or fusion partners. Where a name states a change or a piece, a line headed by the entry shows the natural chain unless it says otherwise.
UniProt P41145: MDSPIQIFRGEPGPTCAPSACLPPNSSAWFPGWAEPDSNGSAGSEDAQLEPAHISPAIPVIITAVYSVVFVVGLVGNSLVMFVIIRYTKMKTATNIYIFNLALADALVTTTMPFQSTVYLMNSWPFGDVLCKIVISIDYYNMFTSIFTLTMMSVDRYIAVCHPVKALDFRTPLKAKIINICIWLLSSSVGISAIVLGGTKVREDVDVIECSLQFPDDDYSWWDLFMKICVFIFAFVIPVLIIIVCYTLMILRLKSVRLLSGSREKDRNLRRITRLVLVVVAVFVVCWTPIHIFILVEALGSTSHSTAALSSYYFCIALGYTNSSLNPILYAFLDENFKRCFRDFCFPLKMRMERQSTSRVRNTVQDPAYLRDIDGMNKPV
UniProt P35372, whole entry: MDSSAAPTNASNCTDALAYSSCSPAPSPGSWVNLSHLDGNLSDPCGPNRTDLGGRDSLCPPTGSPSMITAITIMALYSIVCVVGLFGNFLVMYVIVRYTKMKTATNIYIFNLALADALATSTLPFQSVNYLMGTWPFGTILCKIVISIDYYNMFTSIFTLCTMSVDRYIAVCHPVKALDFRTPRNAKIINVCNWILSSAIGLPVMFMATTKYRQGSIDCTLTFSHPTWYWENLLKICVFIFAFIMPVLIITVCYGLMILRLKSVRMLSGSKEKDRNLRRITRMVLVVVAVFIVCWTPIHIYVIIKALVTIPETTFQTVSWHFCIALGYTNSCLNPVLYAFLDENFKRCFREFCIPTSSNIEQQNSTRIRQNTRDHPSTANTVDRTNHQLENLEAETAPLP

Legend:
Assay type in all cases: cell-based
human opioid receptor δ = human opioid receptor δ (Homo sapiens, UniProt P41143); test: Ca2+ response monitored by FLIPR, δ-expressing cells; set-up: expressed in transfected cells; settings: δ-expressing HEK293T cells, Gqαi3 cotransfected, Fluo-4 AM, mean±SE, n = 3, read-out: EC50 (intracellular Ca2+ mobilization)
human opioid receptor κ = molecular target: T1, human opioid receptor κ (Homo sapiens, UniProt P41145); test: Ca2+ response monitored by FLIPR, κ-expressing cells; settings: κ-expressing HEK293T cells, Gqαi3 cotransfected, Fluo-4 AM, mean±SE, n = 3, read-out: EC50 (intracellular Ca2+ mobilization)
T1 construct: expressed in transfected cells

human opioid receptor μ = molecular target: T2, human opioid receptor μ (Homo sapiens, UniProt P35372); test: Ca2+ response monitored by FLIPR, μ-expressing cells; settings: μ-expressing HEK293T cells, Gqαi3 cotransfected, Fluo-4 AM, mean±SE, n = 3, read-out: EC50 (intracellular Ca2+ mobilization)
T2 construct: expressed in transfected cells

In the case of CSCC[C@H](NC(=O)[C@H](Cc1ccccc1)NC(=O)CNC(=O)CNC(=O)[C@@H](N)Cc1ccc(O)cc1)C(=O)N[C@@H](CC(N)=O)C(=O)N1CCC[C@H]1C(=O)N[C@@H](C)C(=O)O [Phe^4-BmK-YA], the EC50 (human opioid receptor δ) is reported as 60 nM, the EC50 (human opioid receptor κ) is reported as 77 nM and the EC50 (human opioid receptor μ) is reported as 157 nM.
